By UniProt entry, the sequences of proteins in these tests, tags left out. Residues count along the entry.
UniProt P28335, 33-458: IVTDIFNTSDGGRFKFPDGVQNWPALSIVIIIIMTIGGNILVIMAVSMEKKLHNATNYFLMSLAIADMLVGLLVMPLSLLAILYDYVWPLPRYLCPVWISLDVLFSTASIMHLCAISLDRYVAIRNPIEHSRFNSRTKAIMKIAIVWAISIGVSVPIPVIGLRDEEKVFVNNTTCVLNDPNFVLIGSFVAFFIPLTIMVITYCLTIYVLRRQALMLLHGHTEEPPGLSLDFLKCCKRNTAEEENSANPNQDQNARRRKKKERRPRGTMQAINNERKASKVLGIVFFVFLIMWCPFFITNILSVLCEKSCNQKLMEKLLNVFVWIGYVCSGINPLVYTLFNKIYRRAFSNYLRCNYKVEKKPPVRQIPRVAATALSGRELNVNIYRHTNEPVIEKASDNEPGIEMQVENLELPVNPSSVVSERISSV

In US7402687B2, “Dihydrobenzofuran derivatives and uses thereof” (Wyeth, priority 2005, dated 2008):

Columns and labels:
human 5-HT2C receptor = human 5-HT2C receptor (Homo sapiens, UniProt P28335); details: calcium mobilization, Fluo-3-AM, CHO cells expressing human 5-HT2C; % of maximal 5-HT response
[1] = target: T1, human 5-hydroxytryptamine-2C (h5-HT2C) receptor (Homo sapiens, UniProt P28335); experiment: [125I]DOI competition binding at h5-HT2C receptor in transfected CHO cell membranes; details: [125I]DOI displacement, CHO membranes expressing h5-HT2C; 95% confidence interval in adjacent column
T1 construct: expressed in transfected cells; host or cells: CHO (Chinese Hamster Ovary) cells; membrane preparation

For “1-(2,5-dimethoxy-4-iodophenyl)isopropylamine [DOI]”, the EC50 (human 5-HT2C receptor) was 0.5 nM and the Ki [1] was 6.2 nM.
